This note sets out measurements from ChEMBL document CHEMBL3808335, “Discovery of KLS-13019, a Cannabidiol-Derived Neuroprotective Agent, with Improved Potency, Safety, and Permeability” (ACS Med Chem Lett, 2016).

The nature of data set [1]: Efflux ratio of permeability from basolateral to apical over apical to basolateral side in human Caco cells. The note with it: Caco-2. A general note: Caco-2 monolayers are a common model of the intestinal barrier.
A further data set can be described thus: in vitro. The following applies: rat, hippocampal neurone.

On to `C=C(C)[C@@H]1CCC(C)=C[C@H]1c1c(O)cc(CCCCC)cc1O` [CANNABIDIOL], for which, in data set [1], the efflux ratio was above 0.4. For the same compound, the selectivity ratio at 5 h in the data set “in vitro” was 16.

By efflux ratio is commonly meant a quotient of directional permeabilities that is used to spot active efflux.
